Measurements published in patent US20240059727A1, “METHOD OF MAKING NICOTINAMIDE RIBOFURANOSIDE SALTS BY SALT METATHESIS, THE CRYSTALLINE FORM OF ITS TOSYLATE SALT AND THE CO-CRYSTALLIZED FORM OF ITS CHLORIDE:IODIDE SALT” (BIOSYNTH AG, priority 2021, published 2024).

Assay: Solubility in methanol
Conditions: mL solvent per g of NR+ salt, lower value = better solubility

| Solubility in MeOH [mL solvent per g] | Substance |
| --- | --- |
| 23 | co-crystallized nicotinamide-β-D-ribofuranoside (chloride/iodide) [chloride:iodide = ~5:1] |
| 21 | co-crystallized nicotinamide-β-D-ribofuranoside (chloride/iodide) [chloride:iodide = 3:1] |
